The record followed here is ChEMBL document CHEMBL4024777, “Discovery of LY3104607: A Potent and Selective G Protein-Coupled Receptor 40 (GPR40) Agonist with Optimized Pharmacokinetic Properties to Support Once Daily Oral Treatment in Patients with Type 2 Diabetes Mellitus” (J Med Chem, 2018).

The data set can be described thus: Intrinsic clearance in human hepatocytes. It counts as ADME, cell-based, Hepatocyte.

SMILES strings stand for the structures.

As for `CC#C[C@@H](CC(=O)O)c1ccc(OCc2ccc(CN3CCC4(C=Cc5ccccc54)CC3)cc2)cc1` [LY2881835], the K amounted to 0.28 h⁻¹.
